Source: US10322132B2, “Prevention or treatment of uratic or gouty diseases” (SHANTON PHARMA CO., LTD., priority 2015, dated 2019)

Chains of the proteins cited; added tags and fusions are not shown. Lines headed by an entry give the natural chain unless they say otherwise; changes in a name come on top.
UniProt Q96S37: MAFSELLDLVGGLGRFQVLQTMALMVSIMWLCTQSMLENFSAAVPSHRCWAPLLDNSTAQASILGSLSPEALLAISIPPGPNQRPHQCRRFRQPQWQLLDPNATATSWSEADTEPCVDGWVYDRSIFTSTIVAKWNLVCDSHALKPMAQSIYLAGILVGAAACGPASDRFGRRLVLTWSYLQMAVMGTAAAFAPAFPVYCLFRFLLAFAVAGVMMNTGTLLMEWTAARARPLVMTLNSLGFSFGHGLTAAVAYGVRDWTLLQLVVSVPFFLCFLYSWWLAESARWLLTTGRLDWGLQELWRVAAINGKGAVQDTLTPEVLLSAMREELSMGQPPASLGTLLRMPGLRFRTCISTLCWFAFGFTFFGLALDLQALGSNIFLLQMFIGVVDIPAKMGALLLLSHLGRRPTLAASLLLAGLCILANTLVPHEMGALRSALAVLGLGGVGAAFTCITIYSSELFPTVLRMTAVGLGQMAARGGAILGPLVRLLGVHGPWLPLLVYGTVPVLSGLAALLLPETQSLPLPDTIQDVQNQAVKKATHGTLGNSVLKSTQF

Biological target: T1, human urate transporter 1 (hURAT1) (Homo sapiens, UniProt Q96S37)
T1 construct: expressed in transfected cells; host or cells: HEK-293T
Assay: Uptake of 14C-labeled uric acid in hURAT1 transfected cells
Type: cell-based
Conditions: 14C uric acid uptake, hURAT1-transfected HEK-293T cells, 5 min at 37° C.; read-out: IC50 (μM), inhibition of hURAT1 activity
Procedure: The compounds were prepared into the stock solutions (5 mM) with dimethyl sulfoxide (DMSO). This experiment involved 8 concentrations in total. The final concentrations were 5000 nM, 1250 nM, 312.5 nM, 78.1 nM, 19.5 nM, 4.9 nM, 1.2 nM and 0.3 nM, respectively.
2. Preparation of buffers: chlorine-free HBSS buffer (125 mM sodium gluconate, 4.8 mM potassium gluconate, 1.3 mM calcium gluconate, 1.2 mM KH2PO4, 1.2 mM MgSO4, 5.6 mM glucose, 25 mM 4-hydroxyethylpiperazine ethanesulfonic acid (HEPES) (pH 7.4)); lysis buffer (100 mM NaOH)
3. Transfected cells stably expressing human urate transporter 1 (hURAT1) were obtained by: placing human embryonic kidney cells (HEK-293T) in a cell culture plate containing complete medium, incubating the cells for 24 h at 37° C. in 5% CO2, rinsing the cells with phosphate buffered saline (PBS) followed by trypsin digestion to prepare a suspension containing single cells; placing 8×10^6 cells a cell culture plate, adding dropwise TransIT-293 Reagent:DNA complexes (1.5 ml of Opti-MEM I Reduced-Serum Medium, 15 g of plasmid DNA, and 45 μL of TransIT-293 Reagent were mixed uniformly and then incubated at room temperature for 30 min) to different areas of the cell culture plate, gently shaking the cell culture plate to homogeneously distribute the TransIT-293 Reagent:DNA complexes, and incubating the cells for 48 h at 37° C. in 5% CO2.
4. […]

In the case of `O=C(O)CSc1nnc(Br)n1-c1ccc(C2CC2)c2ccccc12` [lesinurad, 2-[[5-bromo-4-(4-cyclopropyl-1-naphthyl)-4H-1,2,4-triazol-3-yl]thio] acetic acid, reference compound], the IC50 was greater than 5 µM.
